Assays:
Conditions in all cases: both partners purified
6×His-MTA2(427–668) = molecular target: T1, 6×His-MTA2(427–668) (UniProt O94776 427-668); experiment: pull-down; recombinant 6xHis protein purified from E. coli on immobilised H3 peptide, with 0.5 mg/ml BSA; Coomassie blue staining
T1 construct: also called recombinant MTA2 C-terminal region; source: E. coli, purified (nickel beads)
T1 sequence (looked up): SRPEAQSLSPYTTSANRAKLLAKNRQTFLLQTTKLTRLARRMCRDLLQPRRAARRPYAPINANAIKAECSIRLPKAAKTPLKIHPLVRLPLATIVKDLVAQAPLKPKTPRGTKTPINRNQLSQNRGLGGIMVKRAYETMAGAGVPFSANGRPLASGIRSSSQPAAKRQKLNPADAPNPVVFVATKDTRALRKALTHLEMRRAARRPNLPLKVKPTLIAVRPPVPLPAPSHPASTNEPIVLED

6xHis-MTA1(454–715) = molecular target: T2, 6xHis-MTA1(454–715) (UniProt Q13330 454-715); experiment: as above
T2 construct: also called recombinant MTA1 C-terminal domain; H3BD of MTA1; source: E. coli, purified (nickel beads)
T2 sequence (looked up): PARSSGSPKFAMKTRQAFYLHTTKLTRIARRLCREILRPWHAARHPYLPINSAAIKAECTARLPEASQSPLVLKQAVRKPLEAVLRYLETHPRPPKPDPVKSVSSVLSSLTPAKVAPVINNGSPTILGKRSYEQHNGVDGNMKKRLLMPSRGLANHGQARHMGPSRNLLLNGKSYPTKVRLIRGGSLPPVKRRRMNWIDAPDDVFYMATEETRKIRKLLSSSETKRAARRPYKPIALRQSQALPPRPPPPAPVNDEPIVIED

[1] = molecular target: T3, Flag-MTA1(454–715), expressed in 293T cells (UniProt Q13330 454-715); experiment: pull-down; Flag-tagged MTA1 proteins (with what came with them) purified from 293T whole cell extracts on anti-Flag M2 agarose beads and eluted, then on immobilised H3 tail peptide; western blot
T3 construct: also called MTA1 C-terminal fragment; source: also purified from it on anti-Flag M2 agarose beads
T3 sequence (looked up): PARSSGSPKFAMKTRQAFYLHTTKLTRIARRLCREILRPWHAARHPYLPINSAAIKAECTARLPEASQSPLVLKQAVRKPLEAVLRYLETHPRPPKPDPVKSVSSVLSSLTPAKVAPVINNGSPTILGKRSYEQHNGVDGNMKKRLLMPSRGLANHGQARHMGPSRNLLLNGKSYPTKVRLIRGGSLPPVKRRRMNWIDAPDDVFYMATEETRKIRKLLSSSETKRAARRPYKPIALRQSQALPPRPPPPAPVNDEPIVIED

[2] = molecular target: T4, Flag-MTA1 full length, expressed in 293T cells (UniProt Q13330 1-715); experiment: as above
T4 construct: MTA1; the anti-Flag purified preparation carried endogenous HDAC1/2 and RbAp48; also called full-length Flag-MTA1; 2XFlag-tagged MTA1; source: also purified from it on anti-Flag M2 agarose beads
T4 sequence (looked up): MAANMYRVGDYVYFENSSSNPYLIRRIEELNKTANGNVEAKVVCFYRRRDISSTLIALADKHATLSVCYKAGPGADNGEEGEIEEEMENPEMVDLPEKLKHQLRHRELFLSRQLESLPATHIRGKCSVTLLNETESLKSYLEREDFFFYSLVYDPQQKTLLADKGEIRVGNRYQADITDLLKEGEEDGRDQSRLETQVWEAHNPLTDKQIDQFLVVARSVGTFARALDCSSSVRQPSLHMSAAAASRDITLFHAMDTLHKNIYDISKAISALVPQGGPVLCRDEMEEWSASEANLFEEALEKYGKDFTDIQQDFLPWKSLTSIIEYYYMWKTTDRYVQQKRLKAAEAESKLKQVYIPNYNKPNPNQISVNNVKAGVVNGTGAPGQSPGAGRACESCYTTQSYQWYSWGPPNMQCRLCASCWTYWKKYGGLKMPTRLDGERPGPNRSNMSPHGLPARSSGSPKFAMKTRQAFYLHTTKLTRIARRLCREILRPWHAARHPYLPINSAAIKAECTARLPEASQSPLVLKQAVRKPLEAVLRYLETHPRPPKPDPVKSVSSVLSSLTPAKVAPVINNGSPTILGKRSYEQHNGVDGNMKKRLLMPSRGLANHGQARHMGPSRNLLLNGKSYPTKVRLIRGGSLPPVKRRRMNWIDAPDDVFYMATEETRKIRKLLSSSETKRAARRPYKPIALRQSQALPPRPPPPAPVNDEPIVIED

- binding result (6×His-MTA2(427–668)): binds
- binding result (6xHis-MTA1(454–715)): binds
- binding result [1]: binds
- binding result [2]: binds
B1: histone H3 N-terminal tail peptide ([…]), unmodified, C-terminal biotin (peptide)
peptide: not shown
modifications: C-terminal biotin
notes: histone H3 N-terminal […]; linker before the C-terminal biotin; also called H3 peptide; H3 tail peptide; source: synthetic peptide (Scilight Biotechnology LLC)

Reference: publication PMC3562248, “The MTA family proteins as novel histone H3 binding proteins” (Cell & Bioscience, 2013)
